Source: patent publication US20200262813A1, “1,5,7-TRISUBSTITUTED ISOQUINOLINE DERIVATIVES, PREPARATION THEREOF, AND USE THEREOF IN MEDICINES” (SHANGHAI HAIYAN PHARMACEUTICAL TECHNOLOGY CO., LTD., priority 2016, published 2020)

Protein sequences, listed by entry. Tags and fused reporters are not part of them.
UniProt Q15910, whole entry Y641F: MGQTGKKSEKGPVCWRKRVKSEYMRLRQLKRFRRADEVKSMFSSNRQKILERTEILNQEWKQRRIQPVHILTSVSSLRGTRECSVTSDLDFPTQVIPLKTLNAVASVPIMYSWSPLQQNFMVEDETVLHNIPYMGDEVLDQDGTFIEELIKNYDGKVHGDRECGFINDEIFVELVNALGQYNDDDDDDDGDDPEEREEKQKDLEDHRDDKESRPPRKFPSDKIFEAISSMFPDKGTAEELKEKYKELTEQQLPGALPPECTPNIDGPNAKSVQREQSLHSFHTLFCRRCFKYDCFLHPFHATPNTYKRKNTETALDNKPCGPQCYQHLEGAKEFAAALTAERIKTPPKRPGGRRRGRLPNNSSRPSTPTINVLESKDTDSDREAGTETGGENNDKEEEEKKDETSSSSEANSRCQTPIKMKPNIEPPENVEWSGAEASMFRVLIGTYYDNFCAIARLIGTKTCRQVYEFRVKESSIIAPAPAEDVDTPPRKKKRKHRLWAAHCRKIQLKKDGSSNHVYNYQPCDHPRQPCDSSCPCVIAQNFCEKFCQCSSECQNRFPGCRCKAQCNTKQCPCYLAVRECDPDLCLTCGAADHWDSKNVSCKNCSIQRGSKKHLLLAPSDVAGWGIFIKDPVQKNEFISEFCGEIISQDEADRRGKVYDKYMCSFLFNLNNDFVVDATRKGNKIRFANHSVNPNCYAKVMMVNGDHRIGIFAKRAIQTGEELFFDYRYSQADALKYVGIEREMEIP
UniProt Q09028, whole entry partner: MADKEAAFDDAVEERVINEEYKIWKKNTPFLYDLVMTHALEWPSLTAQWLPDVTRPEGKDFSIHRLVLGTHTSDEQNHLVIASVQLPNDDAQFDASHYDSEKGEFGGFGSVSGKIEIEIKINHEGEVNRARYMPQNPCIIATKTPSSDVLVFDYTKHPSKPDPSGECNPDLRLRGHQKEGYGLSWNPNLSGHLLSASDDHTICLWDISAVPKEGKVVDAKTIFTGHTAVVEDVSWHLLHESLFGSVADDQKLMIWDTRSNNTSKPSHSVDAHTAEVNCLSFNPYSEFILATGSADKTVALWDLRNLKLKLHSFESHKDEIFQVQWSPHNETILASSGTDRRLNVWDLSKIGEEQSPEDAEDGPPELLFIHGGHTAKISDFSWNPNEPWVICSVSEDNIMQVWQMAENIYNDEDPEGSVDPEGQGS
UniProt O75530, whole entry partner: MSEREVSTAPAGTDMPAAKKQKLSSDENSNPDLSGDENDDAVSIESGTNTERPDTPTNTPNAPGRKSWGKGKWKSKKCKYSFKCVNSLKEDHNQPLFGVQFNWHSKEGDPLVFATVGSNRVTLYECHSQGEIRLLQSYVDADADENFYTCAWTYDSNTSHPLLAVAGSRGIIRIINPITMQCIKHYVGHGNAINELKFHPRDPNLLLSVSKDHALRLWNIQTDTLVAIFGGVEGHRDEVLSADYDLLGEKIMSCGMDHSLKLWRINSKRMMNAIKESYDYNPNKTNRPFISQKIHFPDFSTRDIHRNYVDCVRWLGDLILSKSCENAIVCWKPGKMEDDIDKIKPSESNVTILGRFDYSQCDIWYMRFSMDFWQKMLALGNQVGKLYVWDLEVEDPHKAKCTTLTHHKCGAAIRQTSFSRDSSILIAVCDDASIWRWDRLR
UniProt Q15022, whole entry partner: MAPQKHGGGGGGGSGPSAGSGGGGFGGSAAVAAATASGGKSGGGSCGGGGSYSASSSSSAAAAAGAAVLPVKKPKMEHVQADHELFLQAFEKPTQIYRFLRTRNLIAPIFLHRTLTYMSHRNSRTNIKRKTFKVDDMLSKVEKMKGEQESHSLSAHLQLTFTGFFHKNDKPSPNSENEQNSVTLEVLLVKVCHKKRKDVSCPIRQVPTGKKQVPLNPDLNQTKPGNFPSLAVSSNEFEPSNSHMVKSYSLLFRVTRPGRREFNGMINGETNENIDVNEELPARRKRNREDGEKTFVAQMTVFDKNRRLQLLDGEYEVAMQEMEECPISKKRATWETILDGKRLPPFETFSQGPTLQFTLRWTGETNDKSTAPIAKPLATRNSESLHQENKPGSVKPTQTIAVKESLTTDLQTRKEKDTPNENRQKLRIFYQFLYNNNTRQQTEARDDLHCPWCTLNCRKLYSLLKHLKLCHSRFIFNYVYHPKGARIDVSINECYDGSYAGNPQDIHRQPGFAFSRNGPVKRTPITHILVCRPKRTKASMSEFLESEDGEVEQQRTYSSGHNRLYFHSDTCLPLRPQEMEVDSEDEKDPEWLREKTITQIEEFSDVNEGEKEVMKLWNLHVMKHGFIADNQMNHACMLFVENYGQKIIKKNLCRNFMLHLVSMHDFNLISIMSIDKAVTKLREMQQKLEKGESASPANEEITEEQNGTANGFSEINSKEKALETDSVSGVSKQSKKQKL
UniProt Q6ZN18, whole entry partner: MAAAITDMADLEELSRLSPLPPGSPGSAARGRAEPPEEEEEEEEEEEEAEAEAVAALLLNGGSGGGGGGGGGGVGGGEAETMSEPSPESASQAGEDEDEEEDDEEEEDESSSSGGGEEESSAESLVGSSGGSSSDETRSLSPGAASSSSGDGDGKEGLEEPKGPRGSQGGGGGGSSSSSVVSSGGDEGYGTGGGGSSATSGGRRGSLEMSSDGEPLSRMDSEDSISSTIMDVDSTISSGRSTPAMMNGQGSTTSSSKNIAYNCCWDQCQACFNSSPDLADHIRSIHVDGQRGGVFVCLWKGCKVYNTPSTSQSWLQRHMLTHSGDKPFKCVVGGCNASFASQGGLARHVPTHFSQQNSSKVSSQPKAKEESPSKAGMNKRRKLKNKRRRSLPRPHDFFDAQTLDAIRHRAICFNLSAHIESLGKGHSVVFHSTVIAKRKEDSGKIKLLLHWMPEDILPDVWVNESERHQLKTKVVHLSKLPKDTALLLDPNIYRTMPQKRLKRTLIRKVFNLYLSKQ

Columns and labels:
[1] = molecular target: Recombinant PRC2 (EZH2-Y641F) (Homo sapiens, UniProt Q15910, Y641F); assay: In vitro methyltransferase activity test (LANCE Ultra); conditions: read-out: EZH2 Y641F IC50, LANCE Ultra detection, 3 hours reaction;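 further: compounds tested as an 8-point threefold dilution series, fluorescence read after 1 h detection step at room temperature, IC50 derived from a four-parameter curve fit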
Pfeiffer cells = assay: Cell proliferation test (cell counting kit-8, 6 days); conditions: read-out: Pfeiffer IC50, 6 days' growth

SMILES | IC50 [1] [nM] | IC50 (Pfeiffer cells) [nM]
CCN(c1cc(-c2cnc(N3CCN(C)CC3)nc2)cc2c(NCc3c(C)cc(C)[nH]c3=O)nccc12)[C@H]1CC[C@H](N(C)C)CC1 | 35 | 422
CCN(c1cc(-c2ccc(N3CCN(C)CC3)cc2)cc2c(NCc3c(C)cc(C)[nH]c3=O)nccc12)[C@H]1CC[C@H](N(C)C)CC1 | 68 | 581
CCN(c1cc(-c2ccc(N3CCN(C)CC3)nc2)cc2c(NCc3c(C)cc(C)[nH]c3=O)nccc12)C1CCN(C(C)C)CC1 | 92 | –
CCN(c1cc(-c2ccc(N3CCN(C)CC3)nc2)cc2c(NCc3c(C)cc(C)[nH]c3=O)nccc12)[C@H]1CC[C@@H](O)CC1 | 32 | 103
CCN(c1cc(-c2ccc(N3CCN(C)CC3)nc2)cc2c(NCc3c(C)cc(C)[nH]c3=O)nccc12)[C@H]1CC[C@H](O)CC1 | 95 | 743
CCN(c1cc(C(C)C)cc2c(NCc3c(C)cc(C)[nH]c3=O)nccc12)C1CCC(N(C)C)CC1 (single isomer, unassigned) [Z-210] | 193 | 340
CCN(c1cc(C(C)C)cc2c(NCc3c(C)cc(C)[nH]c3=O)nccc12)C1CCC(N(C)C)CC1 (single isomer, unassigned) [Z-213] | 114 | 694
CCN(c1cc(Cl)cc2c(NCc3c(C)cc(C)[nH]c3=O)nccc12)[C@H]1CC[C@@H](N2CC(OC)C2)CC1 | 61 | 354
CCN(c1cc(-c2ccc(N3CCOCC3)nc2)cc2c(NCc3c(C)cc(C)[nH]c3=O)nccc12)[C@H]1CC[C@H](N(C)C)CC1 | 35 | 634
CCN(c1cc(-c2cnc(CN3CCN(C)CC3)c(F)c2)cc2c(NCc3c(C)cc(C)[nH]c3=O)nccc12)[C@H]1CC[C@H](N(C)C)CC1 | 10 | 442
CCN(c1cc(-c2cccnc2)cc2c(NCc3c(C)cc(C)[nH]c3=O)nccc12)C1CCC(N(C)C)CC1 (stereo not shown) | 17 | 481
CCN(c1cc(-c2ccc(OCCOC)cc2)cc2c(NCc3c(C)cc(C)[nH]c3=O)nccc12)C1CCC(N(C)C)CC1 (stereo not shown) | 58 | –
CCN(c1cc(-c2cnc(N3CCN(C)CC3)nc2)cc2c(NCc3c(C)cc(C)[nH]c3=O)nccc12)[C@H]1CC[C@@H](N(C)C)CC1 | < 5 | –
CCN(c1cc(Cl)cc2c(NCc3c(C)cc(C)[nH]c3=O)nccc12)[C@H]1CC[C@H](N(C)C)CC1 | 74 | 584
CCN(c1cc(Cl)cc2c(NCc3c(OC)cc(C)[nH]c3=O)nccc12)[C@H]1CC[C@H](N(C)C)CC1 | 37 | 96
CCN(c1cc(-c2ccc(N3CCN(C)CC3)nc2)cc2c(NCc3c(C)cc(C)[nH]c3=O)nccc12)C1CCC(N(C)C)CC1 (stereo not shown) | < 14 | 410
CCN(c1cc(Cl)cc2c(NCc3c(OC)cc(C)[nH]c3=O)nccc12)[C@H]1CC[C@@H](N(C)C)CC1 | 8 | 599
CCN(c1cc(-c2ccc(N3CCN(C)CC3)nc2)cc2c(NCc3c(C)cc(C)[nH]c3=O)nccc12)[C@H]1CC[C@H](N(C)C)CC1 | 10 | 770
CCN(c1cc(-c2ccc(N3CCOCC3)nc2)cc2c(NCc3c(C)cc(C)[nH]c3=O)nccc12)[C@H]1CC[C@@H](N(C)C)CC1 | < 14 | 691
CCN(c1cc(-c2ccc(N3CCN(C)CC3)nc2)cc2c(NCc3c(C)cc(C)[nH]c3=O)nccc12)[C@H]1CC[C@@H](N(C)C)CC1 | 11 | 317
